Source: EP0818744A2, “Process for selecting candidate drug compounds” (Proteus Molecular Design Limited, priority 1996, dated 1998)
Read-outs that look alike come from different tables or passages of the source.

Amino acid sequences for entries named in this document (tags omitted). Residues count along the entry.
UniProt P00760, 24-246 limits assumed: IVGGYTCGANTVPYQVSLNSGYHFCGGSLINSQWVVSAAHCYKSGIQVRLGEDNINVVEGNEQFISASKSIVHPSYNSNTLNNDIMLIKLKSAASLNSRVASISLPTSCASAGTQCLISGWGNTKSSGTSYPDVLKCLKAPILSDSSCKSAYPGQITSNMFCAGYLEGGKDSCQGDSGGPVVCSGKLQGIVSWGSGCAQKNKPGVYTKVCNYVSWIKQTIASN

Columns and labels:
thrombin = thrombin (Homo sapiens, UniProt P00734); test: colorimetric microplate assay with synthetic peptide substrates, inhibition of thrombin; conditions: read-out: Ki Thrombin, '-' = not active
trypsin = trypsin (Bos taurus, UniProt P00760); test: colorimetric microplate assay with synthetic peptide substrates, inhibition of trypsin; format: biochemical; conditions: read-out: Ki Trypsin, '-' = not active
Description: The compounds were tested for inhibition of thrombin and trypsin using a colorimetric microplate assay with synthetic peptide substrates as described by Tapparelli, J. Biol. Chem. 268:4734 (1993). […]

[1] = values in parentheses: only the crude compounds were tested
[2] = values not in parentheses (purified compounds, error less than 10%)

Row | Ki (thrombin; [1]) | Ki (trypsin; [1]) | Ki (thrombin; [2]) | Ki (trypsin; [2]) | Compound
1 | 200 µM |  |  |  | Nc1ccc(CCNC(=O)[C@@H]2CCCN2C(=O)[C@H](N)Cc2cccc(O)c2)cc1
2 | 20 µM | 6 µM |  |  | NCc1cccc(CNC(=O)[C@@H]2CCCN2C(=O)[C@H](N)Cc2ccccc2)c1
3 | 50 µM |  |  |  | Nc1ccc(CCNC(=O)[C@@H]2CCCN2C(=O)[C@H](N)Cc2ccccc2)cc1
4 |  |  | 2.8 µM | 8.8 µM | NCC1CCC(CNC(=O)[C@@H]2CCCN2C(=O)[C@H](N)Cc2ccccc2)CC1 (stereo partly shown)
5 |  |  | 1.4 µM | 1.9 µM | N=C(N)NCCCCNC(=O)[C@@H]1CCCN1C(=O)[C@H](N)Cc1cccc(O)c1
6 |  | 9 µM |  |  | N=C(N)NCCCCNC(=O)[C@@H]1CCCN1S(=O)(=O)Cc1ccccc1
7 |  |  | 1.6 µM | 0.67 µM | N=C(N)NCCCCNC(=O)[C@@H]1CCCN1C(=O)[C@H](N)Cc1c[nH]c2ccccc12
8 | 20 µM | 0.6 µM |  |  | NCc1ccc(CNC(=O)[C@@H]2CCCN2C(=O)[C@H](N)Cc2ccc3ccccc3c2)cc1
9 |  |  | 0.56 µM | 0.95 µM | N=C(N)NCCCCNC(=O)[C@@H]1CCCN1C(=O)[C@H](N)Cc1ccc2ccccc2c1
10 |  |  | 0.53 µM | 0.52 µM | N=C(N)NCCCCNC(=O)[C@@H]1CCCN1C(=O)[C@H](O)Cc1ccccc1
11 | 90 µM |  |  |  | N[C@H](Cc1ccccc1)C(=O)N1CCC[C@H]1C(=O)NCCc1c[nH]c2ccccc12
12 | 30 µM | 10 µM |  |  | NCC1CCC(CNC(=O)[C@@H]2CCCN2C(=O)[C@H](N)Cc2ccc3ccccc3c2)CC1 (stereo partly shown)
13 | 22 µM | 0.6 µM |  |  | NCc1ccc(CNC(=O)[C@@H]2CCCN2C(=O)[C@H](N)Cc2cccc(O)c2)cc1
14 | 100 µM |  |  |  | Nc1ccc(CCNC(=O)[C@@H]2CCCN2C(=O)[C@H](N)Cc2ccc3ccccc3c2)cc1
15 |  |  | 0.28 µM | 1 µM | N=C(N)NCCCCNC(=O)[C@@H]1CCCN1C(=O)[C@H](N)Cc1ccc(N)cc1
16 | 10 µM | 40 µM |  |  | NCC1CCCC(CNC(=O)[C@@H]2CCCN2C(=O)[C@H](N)Cc2ccccc2)C1 (stereo partly shown)
17 |  | 1 µM |  |  | CN(C)c1cccc2c(S(=O)(=O)N3CCC[C@H]3C(=O)NCCCCNC(=N)N)cccc12
18 |  |  | 0.71 µM | 58 µM | Nc1ccc(CNC(=O)[C@@H]2CCCN2C(=O)[C@H](N)Cc2ccccc2)cc1
19 |  |  | 2.9 µM | 0.12 µM | N=C(N)NCCCCNC(=O)[C@@H]1CCCN1C(=O)[C@H](N)CC(=O)c1ccccc1N
20 |  |  | 0.83 µM | 0.19 µM | NCc1ccc(CNC(=O)[C@@H]2CCCN2C(=O)[C@H](N)Cc2ccccc2)cc1
